Laboratory results: IntAct's records for PubMed 31189953

B1: Serine/threonine-protein kinase Nek7 (Homo sapiens), Q8TDX7-1 (parent)
chain: MDEQSQGMQGPPVPQFQPQKALRPDMGYNTLANFRIEKKIGRGQFSEVYRAACLLDGVPVALKKVQIFDLMDAKARADCIKEIDLLKQLNHPNVIKYYASFIEDNELNIVLELADAGDLSRMIKHFKKQKRLIPERTVWKYFVQLCSALEHMHSRRVMHRDIKPANVFITATGVVKLGDLGLGRFFSSKTTAAHSLVGTPYYMSPERIHENGYNFKSDIWSLGCLLYEMAALQSPFYGDKMNLYSLCKKIEQCDYPPLPSDHYSEELRQLVNMCINPDPEKRPDVTYVYDVAKRMHACTASS

Variants of: B1
Settings: with q96p20-1 NLRP3, Q96P20-1

Q: For K128E, which “effect of a mutation on the interaction” value is on record?
A: with no effect

Q: For D290R, which “effect of a mutation on the interaction” value is on record?
A: decreasing interaction

Q: With E280R as the variant, how does the “effect of a mutation on the interaction” value read?
A: with no effect

Q: For E280V, which “effect of a mutation on the interaction” value is on record?
A: with no effect

Q: With R136E as the variant, how does the “effect of a mutation on the interaction” value read?
A: decreasing interaction

Q: S260A;D261R;E265R was tested. Which “effect of a mutation on the interaction” value did it give?
A: decreasing interaction

Q: For S260A;D261R, which “effect of a mutation on the interaction” value is on record?
A: decreasing interaction

Q: Which “effect of a mutation on the interaction” value does the source give for R131E here?
A: decreasing interaction

Q: For Q129R, which “effect of a mutation on the interaction” value is on record?
A: decreasing interaction

Q: R294E was tested. Which “effect of a mutation on the interaction” value did it give?
A: decreasing interaction

Q: How did the “effect of a mutation on the interaction” value turn out when R121E was run?
A: decreasing interaction
